Laboratory results reported in patent publication US20140163034A1, “INHIBITORS OF ANANDAMIDE TRANSPORT AND THEIR THERAPEUTIC USES” (IIT - Istituto Italiano di Tecnologia, priority 2011, published 2014).

By UniProt entry, the sequences of proteins in these tests, tags left out.
UniProt P20272, whole entry: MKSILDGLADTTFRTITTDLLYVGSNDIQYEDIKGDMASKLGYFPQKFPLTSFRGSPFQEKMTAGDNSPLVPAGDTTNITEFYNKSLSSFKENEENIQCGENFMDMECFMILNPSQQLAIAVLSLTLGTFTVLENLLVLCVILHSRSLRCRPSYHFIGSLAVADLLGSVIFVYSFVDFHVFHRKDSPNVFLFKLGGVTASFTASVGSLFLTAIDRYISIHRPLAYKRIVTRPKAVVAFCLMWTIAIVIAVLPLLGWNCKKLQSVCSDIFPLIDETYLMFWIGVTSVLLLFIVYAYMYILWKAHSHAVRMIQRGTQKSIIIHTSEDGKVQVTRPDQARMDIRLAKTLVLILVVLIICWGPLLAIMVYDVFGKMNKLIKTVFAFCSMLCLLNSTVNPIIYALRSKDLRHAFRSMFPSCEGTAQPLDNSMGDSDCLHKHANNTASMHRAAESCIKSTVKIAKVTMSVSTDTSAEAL

Molecular target: CB1 cannabinoid receptors (Rattus norvegicus, UniProt P20272)
Assay: Cannabinoid receptor binding assay, [3H]-CP55940 to rat brain membranes

## CCCCC/C=C\C/C=C\C/C=C\C/C=C\CCCCOP(=O)(F)OC (stereo not shown)
  effect on [3H]-CP55940 binding to rat brain membranes: significantly inhibited
